Experimental findings from BindingDB's records for 25147605 are described below.

Protein sequences, listed by entry. Tags and fused reporters are not part of them.
UniProt P32300, whole entry, looked up: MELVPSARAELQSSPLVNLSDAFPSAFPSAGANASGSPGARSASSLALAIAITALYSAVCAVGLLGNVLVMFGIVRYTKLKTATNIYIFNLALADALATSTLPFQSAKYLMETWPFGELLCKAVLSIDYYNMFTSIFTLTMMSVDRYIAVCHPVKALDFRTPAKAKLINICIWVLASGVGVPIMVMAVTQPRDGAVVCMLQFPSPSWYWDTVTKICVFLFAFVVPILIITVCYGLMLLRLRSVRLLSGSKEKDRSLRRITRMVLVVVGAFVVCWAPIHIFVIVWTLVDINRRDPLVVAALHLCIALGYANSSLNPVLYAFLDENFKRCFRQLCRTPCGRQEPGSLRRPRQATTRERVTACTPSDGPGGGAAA
UniProt P42866, whole entry, looked up: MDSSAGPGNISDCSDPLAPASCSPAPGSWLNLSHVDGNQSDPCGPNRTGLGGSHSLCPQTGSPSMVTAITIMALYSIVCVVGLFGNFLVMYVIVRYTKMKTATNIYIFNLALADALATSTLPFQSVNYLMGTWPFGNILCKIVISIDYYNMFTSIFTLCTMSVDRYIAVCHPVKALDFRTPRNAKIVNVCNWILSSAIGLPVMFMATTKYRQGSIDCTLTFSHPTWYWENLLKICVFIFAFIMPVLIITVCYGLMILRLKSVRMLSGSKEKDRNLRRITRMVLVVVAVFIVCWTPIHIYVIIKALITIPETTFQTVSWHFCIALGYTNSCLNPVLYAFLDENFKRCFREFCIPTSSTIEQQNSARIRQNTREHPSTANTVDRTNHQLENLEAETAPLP

Experiment [1] has as its target Delta-type opioid receptor (Mus musculus, UniProt P32300). Kind of experiment: Displacement of [3H]DPDPE from delta opioid receptor in mouse whole brain without cerebellum.
Experiment [2] deals with Mu-type opioid receptor (Mus musculus, UniProt P42866). The experiment in a line: Displacement of [3H]DAMGO from mu opioid receptor in mouse whole brain without cerebellum. In general terms: Loss of bound radioactivity is the signal in a displacement assay; it reports binding, not function.

`CN(C(=O)Cc1ccc(Cl)c(Cl)c1)[C@@H]1CCCC[C@H]1N1CCCC1`: the Ki in experiment [1] and in experiment [2] was > 1 µM in each case.
`CN(C(=O)Cc1ccccc1)[C@H]1CC[C@@]2(CCCO2)C[C@@H]1N1CCCC1`: the Ki in experiment [1] and in experiment [2] was > 1 µM each time.
